Values quoted from earlier work as cited in patent US20040228921A1, “Compositions and methods for delivery of therapeutic agents” (priority 2003, published 2004).
Values after ≈ are worked out from the molar mass of the structure shown. Some compounds may have been tested in ways that are not shown here.

Conditions: printed as 1000 mg/40 mL=25 mg/mL; solvent not stated

Q: For CCC(=O)N(c1ccccc1)C1CCN(CCc2ccccc2)CC1, which Solubility is on record?
A: 25 mg/mL (≈ 74.3 mM)
